Test results: PMC12396409, “Screening and hit evaluation of a microbial metabolite library against the pathogenic Plasmodium falciparum and Toxoplasma gondii parasites” (International Journal for Parasitology: Drugs and Drug …, 2025)
Where a name gives a salt, the structure may show the parent alone.

How the values were obtained:
[1] = test system: P. falciparum 3D7 parasites; experiment: P. falciparum growth inhibition assay, 1-cycle (72 h treatment), SYBR DNA staining (library screen at 2 μg/mL and dose-response); assay type: cell-based, Plasmodium falciparum
[2] = test system: P. falciparum 3D7 parasites; experiment: P. falciparum growth inhibition assay, 2-cycle (120 h treatment), delayed-death screen and dose-response
[3] = Plasmodium falciparum, 3D7, 72 h, read-out: Pf_72h_%Growth_Rep1
[4] = Plasmodium falciparum, 3D7, 72 h, read-out: Pf_72h_%Growth_Rep2
[5] = Plasmodium falciparum, 3D7, 120 h, read-out: Pf_120h_%Growth_Rep1
[6] = Plasmodium falciparum, 3D7, 120 h, read-out: Pf_120h_%Growth_Rep2

| SMILES | selectivity index (HFF cells) | selectivity for P. falciparum in the screens [1] | activity at 2 µg/mL [1, 3] [%] | activity at 2 µg/mL [1, 4] [%] | activity at 2 µg/mL [2, 5] [%] | activity at 2 µg/mL [2, 6] [%] | activity at 2 µg/mL ([1]; Plasmodium falciparum, 3D7, 72 h, read-out: 1) Growth (%) at 72 h) [%] | 3) Fold change (72 h/120 h) [2] | activity at 2 µg/mL ([2]; Plasmodium falciparum, 3D7, 120 h, read-out: 2) Growth (%) at 120 h) [%] |
| --- | --- | --- | --- | --- | --- | --- | --- | --- | --- |
| COc1ccc2c3c(c4cc(OC)c(OC)cc4c2c1)C[C@H]1CCCCN1C3 [Cryptopleurine] | 2.5 | – | – | – | – | – | – | – | – |
| CN(C)c1ccc(O)c2c1C[C@H]1C[C@H]3[C@H](N(C)C)C(O)=C(C(N)=O)C(=O)[C@@]3(O)C(O)=C1C2=O [Minocycline HCl, reference compound] | – | selective for P. falciparum | – | – | – | – | – | – | – |
| O=C(O)c1cccc(C(=O)O)n1 [Dipicolinic acid] | – | – | 83.1 | 35.9 | 81.8 | 110 | – | – | – |
| CCC[C@@H]1C[C@@H](C(=O)N[C@@H]([C@H]2O[C@H](SC)[C@H](O)[C@@H](O)[C@H]2O)[C@H](C)Cl)N(C)C1 [Clindamycin hydrochloride, reference compound] | – | – | 42.4 | 37.5 | 8.87 | -3.37 | 40 | 14.5 | 2.75 |
